From ChEMBL document CHEMBL1124488 (J Med Chem, 1989)

Protein sequences, listed by entry. Tags and fused reporters are not part of them. Lines headed by an entry give the natural chain unless they say otherwise; changes in a name come on top.
UniProt P41144: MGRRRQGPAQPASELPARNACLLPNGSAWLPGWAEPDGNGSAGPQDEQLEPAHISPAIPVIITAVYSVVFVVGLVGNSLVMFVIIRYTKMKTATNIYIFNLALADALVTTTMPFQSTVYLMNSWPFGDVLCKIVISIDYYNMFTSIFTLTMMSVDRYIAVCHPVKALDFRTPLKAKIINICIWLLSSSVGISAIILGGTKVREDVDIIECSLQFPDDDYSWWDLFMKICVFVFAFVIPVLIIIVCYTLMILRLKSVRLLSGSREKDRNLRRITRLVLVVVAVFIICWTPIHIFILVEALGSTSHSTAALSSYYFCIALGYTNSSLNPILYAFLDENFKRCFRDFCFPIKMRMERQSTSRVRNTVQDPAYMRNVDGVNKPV
UniProt P97266, whole entry, looked up: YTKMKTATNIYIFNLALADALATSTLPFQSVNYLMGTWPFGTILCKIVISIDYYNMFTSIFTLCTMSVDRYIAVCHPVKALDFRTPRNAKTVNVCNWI

What was measured:
[1] = biological target: T1, Kappa-type opioid receptor (Cavia porcellus, UniProt P41144); assay: Binding inhibition against Opioid receptor kappa 1 of guinea pig was determined using [3H]ethylketocyclazocine
[2] = biological target: T2, Mu-type opioid receptor (Cavia porcellus, UniProt P97266); assay: Inhibitory activity against Opioid receptor mu 1 of guinea pig brain using [3H]DAGO radioligand
[3] = biological target: T2, Mu-type opioid receptor; assay: Inhibitory activity against Opioid receptor mu 1 of guinea pig brain using [3H]DAG0 radioligand
[4] = biological target: T2, Mu-type opioid receptor; assay: Inhibitory activity against opioid receptor mu of guinea pig brain using [3H]DAGO radioligand
[5] = biological target: T1, Kappa-type opioid receptor; assay: Binding inhibition against opioid receptor kappa of guinea pig was determined using [3H]ethylketocyclazocine

| SMILES | IC50 [1] [nM] | IC50 [2] [nM] | IC50 [3] [nM] | IC50 [4] [nM] | IC50 [5] [nM] |
| --- | --- | --- | --- | --- | --- |
| CN1CCC[C@@]12CCCC[C@@H]2NS(=O)(=O)c1ccc(Br)cc1 | > 10000 | > 10000 |  |  |  |
| CN1CCC[C@@]12CCCC[C@@H]2NC(=O)Cc1ccc(Br)cc1 | > 10000 | 720 |  |  |  |
| CN1CCC[C@@]12CCCC[C@@H]2NC(=O)Cc1ccc(Cl)c(Cl)c1 | > 10000 |  | 250 |  |  |
| CN1CCC[C@@]12CCCC[C@@H]2NC(=O)CCc1ccccc1 |  |  |  | > 10000 | 2800 |
| CN(C(=O)Cc1ccc(Cl)c(Cl)c1)[C@H]1CCCC[C@@]12CCCN2C | > 10000 |  | 87 |  |  |
